Values joined by “and” are separate entries in the source; they are usually repeats but may differ in a detail not shown here. Equal entries are not always repeated.
Target: G9a (Homo sapiens, UniProt Q96KQ7)
Assay: In vitro G9a methyltransferase assay (AlphaLISA-based)
[1] = G9a activity, AlphaLISA-based assay, mean of three experiments
[2] = Sup.Table1, three replicate values

By UniProt entry, the sequences of proteins in these tests, tags left out.
UniProt Q96KQ7, whole entry: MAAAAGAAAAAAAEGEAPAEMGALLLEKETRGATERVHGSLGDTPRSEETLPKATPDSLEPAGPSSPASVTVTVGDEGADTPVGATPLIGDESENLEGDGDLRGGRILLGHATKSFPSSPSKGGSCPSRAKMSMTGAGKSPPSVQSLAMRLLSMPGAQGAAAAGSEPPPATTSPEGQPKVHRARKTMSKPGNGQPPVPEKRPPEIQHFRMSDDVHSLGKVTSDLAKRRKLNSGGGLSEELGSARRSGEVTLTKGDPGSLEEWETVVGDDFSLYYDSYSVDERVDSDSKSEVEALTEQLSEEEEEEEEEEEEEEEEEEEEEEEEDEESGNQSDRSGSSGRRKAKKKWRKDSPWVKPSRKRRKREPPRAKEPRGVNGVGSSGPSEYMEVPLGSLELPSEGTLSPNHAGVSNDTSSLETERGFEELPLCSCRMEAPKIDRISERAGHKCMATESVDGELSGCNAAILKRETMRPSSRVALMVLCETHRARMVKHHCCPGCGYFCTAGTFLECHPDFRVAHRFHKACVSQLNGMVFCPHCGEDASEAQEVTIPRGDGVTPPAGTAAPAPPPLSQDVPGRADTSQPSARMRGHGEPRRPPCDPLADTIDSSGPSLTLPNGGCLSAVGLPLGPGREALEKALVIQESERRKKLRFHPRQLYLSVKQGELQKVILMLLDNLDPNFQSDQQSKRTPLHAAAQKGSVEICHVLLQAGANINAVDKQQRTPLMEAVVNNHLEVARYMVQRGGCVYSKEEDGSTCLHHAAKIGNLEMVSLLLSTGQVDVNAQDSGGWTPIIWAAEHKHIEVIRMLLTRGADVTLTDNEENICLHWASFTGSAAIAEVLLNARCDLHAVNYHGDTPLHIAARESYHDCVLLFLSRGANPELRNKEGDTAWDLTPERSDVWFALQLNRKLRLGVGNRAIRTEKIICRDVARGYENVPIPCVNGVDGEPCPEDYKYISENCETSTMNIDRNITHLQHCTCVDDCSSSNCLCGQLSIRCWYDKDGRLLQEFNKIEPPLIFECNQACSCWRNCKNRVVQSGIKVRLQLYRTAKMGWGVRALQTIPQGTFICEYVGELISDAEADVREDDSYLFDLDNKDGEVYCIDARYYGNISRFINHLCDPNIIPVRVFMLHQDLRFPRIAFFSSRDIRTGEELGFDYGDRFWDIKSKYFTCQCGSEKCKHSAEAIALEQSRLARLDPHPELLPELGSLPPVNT

| SMILES | IC50 [1] [µM] | IC50 [2] |
| --- | --- | --- |
| CSCCC(NC(=O)c1[nH]c2c(c1C)C(=O)CC(C)(C)C2)c1nc2ccccc2[nH]1 (racemic) | 5.3 | 4.56 µM and 4.96 µM and 6.44 µM |
| CSCCC(NC(C)=O)c1nc2ccccc2[nH]1 (stereo not shown) | > 100 | > 100 µM |
| Cc1c(C(=O)NC(Cc2ccccc2)c2nc3ccccc3[nH]2)[nH]c2c1C(=O)CC(C)(C)C2 (stereo not shown) | > 100 | > 100 µM |
| CSCC[C@H](NC(=O)c1[nH]nc2c1CCc1ccccc1-2)c1nc2ccccc2[nH]1 | > 50 | > 50 µM |
| CSCC[C@H](NC(=O)c1[nH]c2c(c1C)C(=O)CC(C)(C)C2)c1nc2ccccc2[nH]1 | 1.4 | 1.42 µM and 1.51 µM and 1.35 µM |
